{"source": "ChEMBL document CHEMBL1137073", "about": "“Development of irreversible diphenyl phosphonate inhibitors for urokinase plasminogen activator” (J Med Chem, 2004)", "target": "Urokinase-type plasminogen activator (Homo sapiens, UniProt P00749)", "test": "Inhibitory activity against Urokinase-type plasminogen activator"}
{"smiles": "C[C@H](NC(=O)[C@@H](CO)NC(=O)OCc1ccccc1)C(=O)NC(CCCN=C(N)N)P(=O)(Oc1ccccc1)Oc1ccccc1", "note": "(stereo partly specified)", "values": [{"measurement": "K app", "value": 1.77, "unit": "M⁻¹ s⁻¹"}]}
